Tests used:
[1] = tested on: experimental pancreatitis; assay: Effect on experimental pancreatitis (sodium taurochorate + trypsin into the common bile duct), survival ratio; format: in vivo, SD-rats; settings: 80 μg/kg/min. x 80 min. continuous infusion, rat
Text: [II] Effect on experimental pancreatitis
SD-rats, body weight of about 200 g were, starved overnight, and 10 to 24 animals were used in one group. Sodium pentobarbital was intraperioneally administered to anesthetize each rat, and then a cannula was inserted to the femoral vein for the administration of the test substance. After abdominal surgery, the bile duct was blocked at a part thereof proximate to the liver, by a clip, a polyethylene tube was inserted to the common bile duct at a part thereof most proximate to the duodenum, and 0.1 ml of solution containing 2 mg sodium taurochorate and 1000 U trypsin dissolved in physiological saline was injected retrogrodely. After removal of the clip and tube, the common bile duct was ligated and the abdomen was closed. Note, the test substance was dissolved in an injective 5% glucose solution, and in the case of a continuous infusion, the solution was administered over 80 minutes starting from 10 minutes before the generation of pancreatitis. In the case of oral administration, the test substance was administered through an oral catheter 30 minutes before the generation of pancreatitis. After 24 hours and 48 hours from the generation of pancreatitis, the survival ratio of the animals was calculated and compared with a control group.

[2] = in vivo; settings: mouse, intravenous, ICR male mice, up-and-down method, read-out: Acute toxicity (LD50)
Protocol: ICR male mice 5 to 10 weeks old were used. The test substance was dissolved in a 5% dimethylsulfoxide aqueous solution, and the solution was intravenously administered in an amount of 0.1 to 0.2 ml/10 g body weight. An LD50 value was calculated by up-and-down method.

Q: Which results are given for `NCC1CCC(C(=O)NC(Cc2ccccc2)C(=O)Nc2ccc(CC(=O)O)cc2)CC1` (stereo not drawn) [Compound 17]?
A: Effect on experimental pancreatitis Survival ratio(%) After 24 hours ([1]; after 24 hours): 46.4%; Effect on experimental pancreatitis Survival ratio(%) After 48 hours ([1]; after 48 hours): 37.3%; LD50 [2]: > 100 mg/kg

Source: patent EP0369035A1, “AGENT FOR TREATING PANCREATITIS OR THE LIKE” (priority 1988, dated 1989)
